Experimental findings from US12692237B2, “Continuous method for preparing tricyanoimidazole” (UCHICAGO ARGONNE, LLC, priority 2022, dated 2026) are described below.

The nature of the data set: Examination of aging time / stability of diazonium solution. Conditions: MeCN/DMSO/water, aged 10 to 1440 min, 20 °C.

On to 4,5-dicyano-1H-imidazole-2-diazonium, for which the “Stability of diazonium in solution (HPLC after quench into KCN/CuCN)” value is listed as “stable in solution”. Also, the “Stability of diazonium in solution (HPLC after quench into KCN/CuCN)” value (listed as Diazonium) is given as “stable”.
